Consider 1 molecule from US7737127B2, “2-propynyl adenosine analogs having A2A agonist activity and compositions thereof” (University of Virginia Patent Foundation, priority 2001, dated 2010).

Amino acid sequences for entries named in this document (tags omitted).
UniProt P30542, whole entry: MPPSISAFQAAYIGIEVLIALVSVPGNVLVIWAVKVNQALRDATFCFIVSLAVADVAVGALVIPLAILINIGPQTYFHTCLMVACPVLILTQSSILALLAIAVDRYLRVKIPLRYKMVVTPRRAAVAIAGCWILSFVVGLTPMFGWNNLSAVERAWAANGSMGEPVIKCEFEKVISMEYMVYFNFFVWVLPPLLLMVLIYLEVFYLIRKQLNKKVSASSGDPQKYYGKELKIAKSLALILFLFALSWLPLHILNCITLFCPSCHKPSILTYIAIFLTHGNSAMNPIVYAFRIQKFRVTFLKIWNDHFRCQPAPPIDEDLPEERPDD
UniProt P0DMS8, whole entry: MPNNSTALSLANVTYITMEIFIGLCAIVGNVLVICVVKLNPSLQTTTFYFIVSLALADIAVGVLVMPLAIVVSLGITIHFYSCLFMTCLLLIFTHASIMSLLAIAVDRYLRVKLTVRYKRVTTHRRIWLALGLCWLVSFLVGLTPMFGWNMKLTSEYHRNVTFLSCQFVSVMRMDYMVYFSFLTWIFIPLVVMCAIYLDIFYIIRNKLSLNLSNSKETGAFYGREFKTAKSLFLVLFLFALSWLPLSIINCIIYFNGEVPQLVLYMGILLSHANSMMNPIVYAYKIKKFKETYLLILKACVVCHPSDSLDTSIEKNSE

Structures are written as SMILES.

For assay [1], the system named is human neutrophils. The assay can be described thus: Human neutrophil oxidative activity, luminol-enhanced chemiluminescence. In kind it is cell-based.
The target of assay [2] is human A1 AR (Homo sapiens, UniProt P30542). The experiment in a line: Radioligand competition binding (125I-ABA) to human A1 AR in CHO K1 cell membranes.
Assay [3] has as its target A3 AR (Homo sapiens, UniProt P0DMS8). The assay can be described thus: Radioligand competition binding (125I-ABA) to human A3 AR in HEK 293 cell membranes. In general terms: In a radioligand displacement assay an active substance lowers the binding of a labelled ligand.
The target in assay [4] is recombinant human A2A receptors (Homo sapiens, UniProt P29274). The experiment in a line: Radioligand competition binding to recombinant human A2A receptors in Sf9 cell membranes. The note with it: read-out: A2A ± SEM, Ki from competition binding.

For `CCNC(=O)[C@H]1O[C@@H](n2cnc3c(N)nc(C#CCN4CCC(C(=O)OC)CC4)nc32)[C@H](O)[C@@H]1O`, the “PMN oxid + roli (-log EC50)” value in assay [1] (human neutrophil experiment w/Rolipram) came to 8.5. Besides, the “PMN oxid (-log EC50)” value in assay [1] (human neutrophil experiment w/o Rolipram) is 7.52. Also, the Ki stood at 47.3 nM in assay [2] (read-out: A1 ± SEM, Ki from competition binding, 125I-ABA, CHO K1 cell membranes); 58.5 nM in assay [3] (read-out: A3 ± SEM, Ki from competition binding, 125I-ABA, HEK 293 cell membranes); 6.02 nM in assay [4]. Moreover, the A1/A2A in assay [2] (selectivity ratio A1 over A2A) is 7.9. Besides, the A3/A2A in assay [3] (selectivity ratio A3 over A2A) stood at 9.7.
